Assay results reported in US20060062783A1.

Molecular target: Human PTH (7-84) (human)
Experiment: ELISA on coated peptide; B cell supernatant

OD: 0.07 OD450
B1: anti-PTH mAb 262 (antibody, IgG2, V domains shown)
VH: EVQLVESGGGLVKPGGSLRLSCAASGFTFSNAWMSWVRQAPGKGLEWVGRIKSKTDGGTTDYAAPVKGRFNISRDDSKNTLYLQMNSLKTEDTAVYYCTTGATFDSWGQGTLVTVSS
VL: DIVMTQSPLSLPVTPGEPASISCRSSQSLLHSNGYKYLDWFLQKPGQSPQLLIYLGSIRASGVPDRFSGSGSGTDFTLKISRVEAEDVGVYYCMQALQTPWTFGQGTKVEIK
